One assay has as its target Kappa opioid (Homo sapiens (Human), UniProt P41145). In words: Receptor binding, Kappa opioid. The note with it: @ 100 nM.
For a further assay, the target named is Delta opioid (Homo sapiens (Human), UniProt P41143). In words: Receptor binding, Delta opioid.
Assay [1] has as its target NOP (Nociceptin Receptor) (Homo sapiens (Human), UniProt P41146). In words: Receptor binding, NOP.

For the compound `O=C1CN2c3c(cccc3[C@@H]3CN(CCCOc4ccc(F)cc4)CC[C@@H]32)N1` [Example 1, (6bR,10aS)-8-(3-(4-fluorophenoxy)propyl)-6b,7,8,9,10,10a-hexahydro-1H-pyrido[3′,4′:4,5]pyrrolo[1,2,3-de]quinoxalin-2(3H)-one], the maximum inhibition at Kappa opioid is given as 16% @; at Delta opioid, “No inhibition”; in assay [1] it was “No inhibition”.
